Our source for the Ki values is publication PMC2559975 (Journal of medicinal chemistry, 2008).

The assay deals with T1, rhGAR Tfase (Homo sapiens, UniProt P22102).
T1 sequence (P22102 808-1010 limits assumed): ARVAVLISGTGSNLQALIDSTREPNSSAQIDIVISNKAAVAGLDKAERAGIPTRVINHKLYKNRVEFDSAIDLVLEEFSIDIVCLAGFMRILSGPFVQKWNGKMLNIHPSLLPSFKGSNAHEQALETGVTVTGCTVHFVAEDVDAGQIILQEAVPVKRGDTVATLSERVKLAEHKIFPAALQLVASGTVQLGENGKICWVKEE
The assay is described as follows: GAR Tfase enzyme inhibition assay. In kind it is biochemical.

Compound `Nc1nc(N)c(CCCC(C(=O)C(F)(F)F)c2ccc(C(=O)N[C@@H](CCC(=O)O)C(=O)O)cc2)c(=O)[nH]1` (stereo partly shown) [Compound 2, 10-CF3CO-DDACTHF, reference compound] returned a Ki of 30 nM.
